Assay results published in PubChem BioAssay (Tox21).
The list shows a part of the results, in another mix than the full data. Inconclusive results are not listed. Calls of active or inactive are those of the source. Unless noted, calls come from the whole dose curve; as a rule, active = well fitted curve in the direction sought with a large enough effect in the repeat runs; inconclusive = weak or mixed curves; inactive = no such curve, though single readings can be large; an effect the other way counts as inactive or inconclusive.

The chains behind the UniProt entries cited, without tags or fusion partners.
UniProt P37231, whole entry: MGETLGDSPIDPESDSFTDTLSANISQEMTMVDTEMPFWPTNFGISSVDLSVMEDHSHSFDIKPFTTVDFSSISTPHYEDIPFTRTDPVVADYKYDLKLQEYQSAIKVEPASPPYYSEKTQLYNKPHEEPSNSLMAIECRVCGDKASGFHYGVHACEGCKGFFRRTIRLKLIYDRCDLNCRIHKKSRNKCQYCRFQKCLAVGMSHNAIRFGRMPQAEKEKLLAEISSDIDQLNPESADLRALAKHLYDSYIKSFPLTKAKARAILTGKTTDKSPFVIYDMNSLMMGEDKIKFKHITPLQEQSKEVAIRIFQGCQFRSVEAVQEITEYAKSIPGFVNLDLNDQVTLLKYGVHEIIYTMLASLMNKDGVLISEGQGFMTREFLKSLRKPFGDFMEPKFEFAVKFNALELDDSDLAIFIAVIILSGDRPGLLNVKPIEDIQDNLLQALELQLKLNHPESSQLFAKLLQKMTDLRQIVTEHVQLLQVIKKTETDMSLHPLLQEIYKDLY
UniProt Q03181, whole entry: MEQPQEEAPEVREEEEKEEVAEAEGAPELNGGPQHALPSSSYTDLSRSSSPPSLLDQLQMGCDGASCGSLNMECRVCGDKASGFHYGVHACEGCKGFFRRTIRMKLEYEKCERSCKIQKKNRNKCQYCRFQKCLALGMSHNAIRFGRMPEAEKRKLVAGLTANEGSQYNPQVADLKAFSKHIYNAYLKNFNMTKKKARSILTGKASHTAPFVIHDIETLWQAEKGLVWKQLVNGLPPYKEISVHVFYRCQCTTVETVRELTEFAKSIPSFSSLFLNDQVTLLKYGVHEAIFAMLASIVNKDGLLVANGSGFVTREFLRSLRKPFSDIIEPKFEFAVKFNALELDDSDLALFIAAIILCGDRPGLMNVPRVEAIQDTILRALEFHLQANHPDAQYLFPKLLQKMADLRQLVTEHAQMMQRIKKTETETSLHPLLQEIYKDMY
UniProt P11473, whole entry: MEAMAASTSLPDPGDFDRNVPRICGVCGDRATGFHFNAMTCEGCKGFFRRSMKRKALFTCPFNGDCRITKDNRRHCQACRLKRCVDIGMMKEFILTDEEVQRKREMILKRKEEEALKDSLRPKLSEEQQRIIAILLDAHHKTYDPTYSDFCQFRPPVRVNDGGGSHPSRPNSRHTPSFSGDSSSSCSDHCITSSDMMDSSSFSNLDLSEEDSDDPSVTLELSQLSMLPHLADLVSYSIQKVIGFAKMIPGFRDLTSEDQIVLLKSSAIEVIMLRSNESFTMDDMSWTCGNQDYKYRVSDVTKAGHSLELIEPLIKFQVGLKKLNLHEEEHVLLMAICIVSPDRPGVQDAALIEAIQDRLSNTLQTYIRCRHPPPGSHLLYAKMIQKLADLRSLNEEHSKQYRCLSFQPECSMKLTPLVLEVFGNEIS

Tests used:
[1] = target: Peroxisome proliferator-activated receptor gamma (Homo sapiens) (UniProt P37231); assay: qHTS assay to identify small molecule antagonists of the peroxisome proliferator-activated receptor gamma (PPARg) signaling pathway (AID 743191; calls by dose curve; note: nearly all actives have a fitted effect of over 30% in size); conditions: HEK293H PPARg-UAS-bla, beta-lactamase ratio, antagonist, 17 h; at 62.6 µM (top of the series) unless noted
Outline: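 Beta-lactamase reporter under UAS control in HEK293H PPARg-bla cells; compound treatment 17 h at 37C. Read-out: fluorescence intensity after 1 h room-temperature incubation with LiveBLAzer B/G FRET substrate.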

[2] = qHTS assay to identify small molecule antagonists of the peroxisome proliferator-activated receptor gamma (PPARg) signaling pathway - cell viability counter screen (AID 743194); conditions: PPARg-bla HEK293H viability, CellTiter-Glo luminescence, 17 h, co-treated with 50 nM rosiglitazone; note: nearly all actives have a fitted effect of over 55% in size
Outline: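 Viability was measured as CellTiter-Glo luminescence in GeneBLAzer PPARg UAS-bla HEK293H cells. These cells had been exposed 17 h at 37 C to compounds together with rosiglitazone at 50 nM final, with the beta-lactamase readout taken in the same wells.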

[3] = qHTS assay for small molecule agonists of the antioxidant response element (ARE) signaling pathway (AID 743202; active = well fitted activation curve with a large enough effect in the signal ratio in the repeat runs, not every such curve was filed as active; the % refers to the signal ratio); conditions: HepG2 ARE-bla reporter, beta-lactamase FRET, 16 h
Outline: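 After 16 hours of compound treatment at 37 C, HepG2 cells with a stably integrated ARE-driven beta-lactamase reporter were loaded 2 hours at room temperature with LiveBLAzer B/G FRET substrate and fluorescence intensity measured.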

[4] = qHTS assay for small molecule agonists of the antioxidant response element (ARE) signaling pathway - cell viability counter screen (AID 743203; calls by dose curve; note: nearly all actives have a fitted effect of over 55% in size); conditions: ARE-bla HepG2 viability, CellTiter-Glo luminescence, 16 h
Outline: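 Luminescence read-out (CellTiter-Glo, 30 min at room temperature) measured cell viability in the same wells as the ARE beta-lactamase reporter. HepG2 ARE-bla cells were treated with compounds for 16 hrs at 37C/5% CO2.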

[5] = qHTS assay for small molecule activators of the heat shock response signaling pathway - cell viability counter screen (AID 743209); conditions: HSE-bla HeLa viability, CellTiter-Glo luminescence, 5 h; note: nearly all actives have a fitted effect of over 50% in size
Outline: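 HSE-bla HeLa; 1500 cells/well; overnight 37 C, 5% CO2; compound 5 h 37 C; LiveBLAzer B/G substrate 2.5 h RT; CellTiter-Glo 30 min RT; luminescence.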

[6] = qHTS assay for small molecule activators of the heat shock response signaling pathway (AID 743210; active = well fitted activation curve with a large enough effect in the signal ratio in the repeat runs, with a control signal flat, not every such curve was filed as active; the % refers to the signal ratio); conditions: HeLa HSE-bla reporter, beta-lactamase ratio, 5 h
Outline: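 Compound exposure lasted 5 h at 37 C in HeLa cells carrying a heat-shock-element-driven beta-lactamase reporter. Read-out: fluorescence intensity after 2.5 h room-temperature loading with LiveBLAzer B/G FRET substrate.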

[7] = qHTS assay to identify small molecule agonists of the peroxisome proliferator-activated receptor delta (PPARd) signaling pathway - cell viability counter screen (AID 743211); conditions: PPARd-bla HEK293H viability, CellTiter-Glo luminescence, 17 h; note: nearly all actives have a fitted effect of over 55% in size
Outline: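 Multiplexed format: after the 2 h room-temperature LiveBLAzer B/G FRET step, CellTiter-Glo was added to the same wells. Luminescence after 30 min gave cell viability; compound exposure was 17 h at 37C.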

[8] = target: Peroxisome proliferator-activated receptor delta (Homo sapiens) (UniProt Q03181); assay: qHTS assay to identify small molecule agonists of the peroxisome proliferator-activated receptor delta (PPARd) signaling pathway (AID 743212; calls by dose curve); conditions: HEK293H PPARd-UAS-bla, beta-lactamase FRET ratio, 17 h
Outline: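 Beta-lactamase reporter readout: a ratiometric FRET signal from the LiveBLAzer substrate after 2 h at room temperature. Compound exposure at 37 °C in PPARδ-bla HEK293H cells driven by an upstream activator sequence.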

[9] = qHTS assay to identify small molecule antagonists of the peroxisome proliferator-activated receptor delta (PPARd) signaling pathway - cell viability counter screen (AID 743213); conditions: PPARd-bla HEK293H viability, CellTiter-Glo luminescence, 17 h; note: nearly all actives have a fitted effect of over 50% in size
Outline: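 Same-well viability: cells pre-incubated 5 h, dosed with compound plus 300 nM L165041, kept 17 h at 37 C, FRET substrate 2 h RT, then CellTiter-Glo 30 min RT and luminescence.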

[10] = target: Peroxisome proliferator-activated receptor delta (Homo sapiens) (UniProt Q03181); assay: qHTS assay to identify small molecule antagonists of the peroxisome proliferator-activated receptor delta (PPARd) signaling pathway (AID 743215; active = well fitted inhibition curve with a large enough effect in the signal ratio in the repeat runs, not every such curve was filed as active; the % refers to the signal ratio;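 note: cells stimulated with agonist L165041 at 300 nM final during compound exposure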); conditions: HEK293H PPARd-UAS-bla, beta-lactamase FRET ratio, antagonist, 17 h
Outline: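 HEK293H GeneBLAzer PPARd UAS-bla reporter cells; cpd + L165041 300 nM final, 17 h 37 C; LiveBLAzer B/G FRET substrate 2 h RT; fluorescence intensity read-out. Antagonist mode.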

[11] = qHTS assay to identify small molecule agonists of the farnesoid-X-receptor (FXR) signaling pathway - cell viability counter screen (AID 743218); conditions: FXR-bla HEK293T viability, CellTiter-Glo luminescence, 16 h; note: nearly all actives have a fitted effect of over 45% in size
Outline: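 Luminescence from CellTiter-Glo, read after 30 min at RT, reports viability of GeneBLAzer FXR-UAS-bla HEK 293T cells treated 16 h with compounds in the wells used for the beta-lactamase reporter.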

[12] = qHTS assay to identify small molecule antagonists of the farnesoid-X-receptor (FXR) signaling pathway - cell viability counter screen (AID 743221; active = well fitted cell-killing curve with a large enough effect in the repeat runs, not every such curve was filed as active; note: nearly all actives have a fitted effect of over 50% in size); conditions: FXR-bla HEK293T viability, CellTiter-Glo luminescence, 16 h
Outline: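 CellTiter-Glo, 30 min RT, luminescence; same wells as the LiveBLAzer FRET read. Cells: FXR-UAS-bla HEK 293T. Treatment: compound with chenodeoxycholic acid 50 uM final, 16 h at 37 C.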

[13] = target: Vitamin D3 receptor (Homo sapiens) (UniProt P11473); assay: qHTS assay to identify small molecule agonists of the vitamin D receptor (VDR) signaling pathway (AID 743222; calls by dose curve); conditions: HEK293T VDR-UAS-bla, beta-lactamase FRET ratio, 16 h
Outline: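 Beta-lactamase reporter readout (LiveBLAzer B/G FRET, 2 h RT) in VDR-bla cells after 16 h compound treatment at 37C, 5% CO2; cells pre-incubated 4 h before pin transfer of DMSO solutions.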

[14] = target: Vitamin D3 receptor (Homo sapiens) (UniProt P11473); assay: qHTS assay to identify small molecule antagonists of the vitamin D receptor (VDR) signaling pathway (AID 743223; active = well fitted inhibition curve with a large enough effect in the signal ratio in the repeat runs, not every such curve was filed as active; the % refers to the signal ratio); conditions: VDR-UAS-bla HEK293T, beta-lactamase FRET ratio, 16 h; at 78.8 µM (top of the series)
Outline: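 After VDR-bla cells are plated and left 4 h at 37C, DMSO-dissolved compounds and 3 nM (final) calcitriol agonist are added. Incubation continues 16 h at 37C; FRET beta-lactamase substrate then develops 2 h at room temperature.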

[15] = qHTS assay to identify small molecule agonists of the vitamin D receptor (VDR) signaling pathway - cell viability counter screen (AID 743224); conditions: VDR-bla HEK293T viability, CellTiter-Glo luminescence, 16 h; note: nearly all actives have a fitted effect of over 50% in size
Outline: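 Cytotoxicity counter screen: VDR-bla cells, 16 h compound exposure at 37C, 5% CO2; CellTiter-Glo luminescence, 30 min RT, same wells as bla read.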

[16] = qHTS assay to identify small molecule antagonists of the vitamin D receptor (VDR) signaling pathway - cell viability counter screen (AID 743225); conditions: VDR-bla HEK293T viability, CellTiter-Glo luminescence, 16 h; note: nearly all actives have a fitted effect of over 50% in size
Outline: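 Cytotoxicity toward the VDR-bla HEK 293T line was scored by ATP-based CellTiter-Glo luminescence, read in the wells already used for the beta-lactamase readout after 16 h compound treatment under 3 nM 1-alpha,25-dihydroxyvitamin D3 stimulation.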

[17] = qHTS assay to identify small molecule agonists of the NFkB signaling pathway (AID 1159509; active = well fitted curve in the direction sought with a large enough effect in the signal ratio in the repeat runs, not every such curve was filed as active; the % refers to the signal ratio); conditions: NFkB-bla ME-180 cells, beta-lactamase FRET ratio, 5 h
Outline: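 Agonist activity was read as beta-lactamase-driven FRET change (460 and 530 nm emission, 405 nm excitation) following 1.5 hr substrate loading at room temperature. Beforehand, ME-180 NFkB-bla reporter cells were treated with compounds for 5 hr at 37 C.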

[18] = qHTS assay to identify small molecule agonists of the NFkB signaling pathway - cell viability counter screen (AID 1159515; calls by dose curve; note: nearly all actives have a fitted effect of over 55% in size); conditions: NFkB-bla ME-180 viability, CellTiter-Glo luminescence, 5 h
Outline: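 ME-180 NFkB-bla cells, 2,000/well; overnight attach; compound 5 hr, 37 C/5% CO2; LiveBLAzer substrate 1.5 hr RT; then CellTiter-Glo in same wells, 30 min RT, luminescence read.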
% is set by controls: 0 for no effect and ±100 for the full control effect.

ClCCOP(OCCCl)OCCCl
inactive: ratio activity, negative = inhibition [1] 4.02% [at 81.1 µM] | activity change, negative = cytotoxicity ([2]; at 62.6 µM (top of the series)) 5.82% | activity change, negative = cytotoxicity ([2]; at 81.1 µM (top of the series)) 16.8% | activation ([3]; at 73.3 µM (top of the series)) -1.05% | activation ([3]; at 94.8 µM (top of the series)) -1.66% | viability change, negative = cytotoxic ([4]; at 73.3 µM (top of the series)) 11.4% | viability change, negative = cytotoxic ([4]; at 94.8 µM (top of the series)) -1.2% | activity change, negative = cytotoxicity ([5]; at 62.6 µM (top of the series)) 0.645% | activity change, negative = cytotoxicity ([5]; at 81.1 µM (top of the series)) -1.6% | activation ([6]; at 62.6 µM (top of the series)) 0.296% | activation ([6]; at 81.1 µM (top of the series)) -0.657% | activity change, negative = cytotoxicity ([7]; at 62.6 µM (top of the series)) -1.02% | activity change, negative = cytotoxicity ([7]; at 81.1 µM (top of the series)) 15.4% | activation ([8]; at 62.6 µM (top of the series)) 0.655% | activation ([8]; at 81.1 µM (top of the series)) -0.769% | viability change, negative = cytotoxic ([9]; at 62 µM (top of the series)) 9.56% | viability change, negative = cytotoxic ([9]; at 80.4 µM (top of the series)) 0.58% | ratio activity, negative = inhibition ([10]; at 62 µM (top of the series)) 11.2% | ratio activity, negative = inhibition ([10]; at 80.4 µM (top of the series)) 0.55% | viability change, negative = cytotoxic ([11]; at 62.6 µM (top of the series)) 11.3% | viability change, negative = cytotoxic ([11]; at 81.1 µM (top of the series)) 31.7% | activity change, negative = cytotoxicity ([12]; at 62.6 µM (top of the series)) 10.4% | activity change, negative = cytotoxicity ([12]; at 81.1 µM (top of the series)) -1.28% | activation ([13]; at 63.5 µM (top of the series)) 4.4% | activation ([13]; at 81.1 µM (top of the series)) 6.29% | activity change, negative = inhibition [14] 23.8% | activity change, negative = cytotoxicity ([15]; at 62.6 µM (top of the series)) 0.326% | activity change, negative = cytotoxicity ([15]; at 81.1 µM (top of the series)) 2.09% | viability change, negative = cytotoxic ([16]; at 61 µM (top of the series)) -0.691% | viability change, negative = cytotoxic ([16]; at 78.8 µM (top of the series)) -0.376% | activation ([17]; at 61 µM (top of the series)) -0.186% | activation ([17]; at 78.8 µM (top of the series)) -0.0361% | activity, negative = cytotoxic ([18]; at 61 µM (top of the series)) 7.06% | activity, negative = cytotoxic ([18]; at 78.8 µM (top of the series)) 12.6%
